# PubChem BioAssay AID902 (National Center for Advancing Translational Sciences (NCATS), 2007)
# The entries are a selection whose mix differs from that of the whole data set. Records with an inconclusive call do not appear. The source made the active and inactive calls. The call rests on the fitted dose curve; in most records, active means well fitted cell-killing curve with a large enough effect; inconclusive means small, poorly fitted or top-dose-only effect; inactive means no such curve, though single readings can be large or run the other way.
# Assay: qHTS Screen for Compounds that Selectively Target Cancer Cells with p53 Mutations: Cytotoxicity of p53ts Cells at the Nonpermissive Temperature; further: nearly all actives have a fitted effect of over 55% in size
# Conditions: H1299-p53A138V viability at 39C, ATP luminescence, 24 h; at 46.1 µM (top of the series) unless noted
# On the % scale 0 is the no-effect control and ±100 the full control effect.
row,Compound,"activity change, negative = cell killing"
1,O=C(NCC1(N2CCOCC2)CCCCC1)c1ccc(Cl)cc1,inactive: 9.86%
2,COc1ccc(NC2CCN(CCc3ccccc3)CC2)c(OC)c1,inactive: -9.51%
3,COc1ccccc1C(=O)NCC1(N2CCOCC2)CCCCC1,inactive: 15%
4,O=C(OC1CN2CCC1CC2)C1c2ccccc2Oc2ccccc21 (stereo not drawn),inactive: -9.02%
5,O=C(NCC1(N2CCOCC2)CCCCC1)c1ccccc1Br,inactive: -5.04%
6,CCCCOc1ccccc1C(=O)NCC1(N2CCOCC2)CCCCC1,inactive: -10.9%
7,CCOP(=O)(Cl)Cl,inactive: -1.96%
8,CCCOc1cccc(C(=O)NCC2(N3CCOCC3)CCCCC2)c1,inactive: -7.27%
9,CCOc1ccc(C(=O)NCC2(N3CCOCC3)CCCCC2)cc1,inactive: 3.02%
10,N#CC1(Nc2ccccc2)CCN(CCc2ccccc2)CC1,inactive: -6.84%
11,O=C(NCC1(N2CCOCC2)CCCCC1)c1ccccc1,inactive: 19.2%
12,ClCCOP(OCCCl)OCCCl,inactive: 11.8%
13,O=C(NCC1(N2CCOCC2)CCCCC1)c1ccc([N+](=O)[O-])cc1,inactive: 6.89%
14,O=C(NCC1(N2CCOCC2)CCCCC1)c1ccccc1[N+](=O)[O-],inactive: 6.13%
15,N/C(=N\O)c1c(N)no[n+]1[O-],inactive: 5.97%
16,CCC(CO)(C(=O)OC1CN2CCC1CC2)c1ccccc1 (stereo not drawn),inactive: 3.76%
17,COc1cc(C(=O)NCC2(N3CCOCC3)CCCCC2)cc(OC)c1OC,inactive: 3.05%
18,CCOc1ncccc1C(=O)NCC1(N2CCOCC2)CCCCC1,inactive: 0.461%
19,O=C(O)C1(Nc2ccccc2)CCN(Cc2ccccc2)CC1,inactive: 0.382% [at 9.22 µM]
20,CC(C)(C)c1ccc(C(=O)NCC2(N3CCOCC3)CCCCC2)cc1,inactive: 7.71%
21,Cc1ccccc1C(=O)NCC1(N(C)C)CCCCC1,inactive: -14.4%
22,CN(C)C1(CNC(=O)c2ccc(C(C)(C)C)cc2)CCCCC1,inactive: -8.67%
23,Fc1ccccc1NC1CCN(Cc2ccccc2)CC1,inactive: -3.33%
